Experimental data published in patent publication US9505716B2, “Pyrrolidine triple reuptake inhibitors” (SUNOVION PHARMACEUTICALS INC., priority 2009, dated 2016).

Sequences of proteins named here, by UniProt entry; tags and fusion partners are left off.
UniProt P31645, whole entry, looked up: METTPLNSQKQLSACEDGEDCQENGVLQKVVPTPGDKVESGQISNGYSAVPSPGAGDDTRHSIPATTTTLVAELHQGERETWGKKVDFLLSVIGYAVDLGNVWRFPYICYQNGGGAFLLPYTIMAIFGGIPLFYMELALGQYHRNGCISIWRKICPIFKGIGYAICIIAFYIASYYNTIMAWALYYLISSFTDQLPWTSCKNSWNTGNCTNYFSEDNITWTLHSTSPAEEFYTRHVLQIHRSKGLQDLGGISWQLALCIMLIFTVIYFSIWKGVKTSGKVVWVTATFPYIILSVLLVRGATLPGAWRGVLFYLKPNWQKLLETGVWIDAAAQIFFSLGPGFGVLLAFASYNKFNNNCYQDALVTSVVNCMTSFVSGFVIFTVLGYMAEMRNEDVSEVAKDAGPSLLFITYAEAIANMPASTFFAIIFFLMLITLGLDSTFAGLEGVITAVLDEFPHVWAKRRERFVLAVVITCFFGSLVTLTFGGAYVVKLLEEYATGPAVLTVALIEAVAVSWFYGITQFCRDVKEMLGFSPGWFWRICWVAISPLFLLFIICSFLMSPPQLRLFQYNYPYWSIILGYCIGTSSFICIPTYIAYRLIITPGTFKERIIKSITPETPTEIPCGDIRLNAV
UniProt P23975, whole entry, looked up: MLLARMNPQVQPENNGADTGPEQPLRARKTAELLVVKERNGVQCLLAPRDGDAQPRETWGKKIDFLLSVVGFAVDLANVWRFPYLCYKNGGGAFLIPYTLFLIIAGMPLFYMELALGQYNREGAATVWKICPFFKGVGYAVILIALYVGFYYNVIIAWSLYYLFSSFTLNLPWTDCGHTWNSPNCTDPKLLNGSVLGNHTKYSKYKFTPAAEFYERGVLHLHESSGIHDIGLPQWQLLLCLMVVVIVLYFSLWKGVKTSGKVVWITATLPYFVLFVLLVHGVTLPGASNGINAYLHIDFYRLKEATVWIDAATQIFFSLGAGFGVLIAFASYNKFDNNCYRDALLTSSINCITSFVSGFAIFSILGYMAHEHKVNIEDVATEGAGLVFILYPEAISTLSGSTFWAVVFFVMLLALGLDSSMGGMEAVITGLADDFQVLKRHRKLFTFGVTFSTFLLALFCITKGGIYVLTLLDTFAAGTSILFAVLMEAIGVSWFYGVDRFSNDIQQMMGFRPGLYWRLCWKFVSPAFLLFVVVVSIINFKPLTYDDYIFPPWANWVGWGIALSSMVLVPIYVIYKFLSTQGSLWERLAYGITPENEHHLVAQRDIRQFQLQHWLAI
UniProt Q01959, whole entry, looked up: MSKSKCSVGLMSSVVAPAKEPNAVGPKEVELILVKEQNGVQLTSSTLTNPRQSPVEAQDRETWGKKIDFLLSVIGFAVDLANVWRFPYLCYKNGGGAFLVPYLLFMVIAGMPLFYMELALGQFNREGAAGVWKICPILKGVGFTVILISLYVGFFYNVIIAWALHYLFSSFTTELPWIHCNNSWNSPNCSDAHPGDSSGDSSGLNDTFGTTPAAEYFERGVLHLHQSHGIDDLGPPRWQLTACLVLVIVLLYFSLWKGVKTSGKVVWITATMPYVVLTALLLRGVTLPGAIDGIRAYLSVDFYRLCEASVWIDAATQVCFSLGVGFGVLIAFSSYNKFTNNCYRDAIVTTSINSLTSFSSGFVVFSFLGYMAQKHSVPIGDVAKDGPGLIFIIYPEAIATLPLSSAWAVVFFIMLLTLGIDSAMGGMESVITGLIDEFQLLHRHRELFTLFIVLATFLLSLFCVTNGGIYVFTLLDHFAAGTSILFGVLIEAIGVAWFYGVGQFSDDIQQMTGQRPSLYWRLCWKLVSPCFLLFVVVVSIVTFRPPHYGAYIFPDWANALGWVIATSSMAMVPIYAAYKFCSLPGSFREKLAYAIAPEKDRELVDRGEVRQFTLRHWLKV

Key:
Type in all cases: cell-based
[1] = biological target: recombinant human serotonin transporter expressed in HEK-293 cells (Homo sapiens, UniProt P31645); assay: Serotonin functional uptake assay for human reuptake transporter; conditions: read-out: hSERT (IC50 nM); functional uptake of serotonin
[2] = biological target: recombinant human norepinephrine transporter expressed in either HEK293 or MDCK cells (Homo sapiens, UniProt P23975); assay: Norepinephrine functional uptake assay for human reuptake transporter; conditions: read-out: hNET (IC50 nM); functional uptake of norepinephrine
[3] = biological target: recombinant human dopamine transporter expressed in either CHO-K1 or HEK293 cells (Homo sapiens, UniProt Q01959); assay: Dopamine functional uptake assay for human reuptake transporter; conditions: read-out: hDAT (IC50 nM); functional uptake of dopamine

Measured: IC50

O[C@@H]1CNCC1C1(c2ccc(Cl)c(Cl)c2)CCCC1 (stereo partly drawn)
< 100 nM: [1] | [2] | [3]
